{"source": "patent US6607723B1", "about": "“Methods and compositions for attenuating antibody-mediated xenograft rejection in human recipients” (priority 1991, dated 2003)", "tested_on": "pig kidney cell line (LLC-PK1)", "experiment": "Chromium release assay, plasma incubated with soluble carbohydrate haptens", "assay_type": "cell-based", "details": "for cytotoxic activity of plasma incubated with hapten: not heat inactivated"}
{"substance": "αGal(1-3)βGal(1-4)βGlc-O—(CH2)COOCH3 [linear B type 6X-Y]", "values": [{"measurement": "cytotoxic effect of antibodies to the pig cell line", "setting": "heat inactivated human plasma (O and A), 1 ml incubated overnight at 4° C. with 0.215 g hapten, FIGS. 8A and 8B", "result": "completely inhibited"}, {"measurement": "cytotoxic activity of plasma incubated with hapten", "setting": "human plasma A, B, O and AB, FIG. 9", "result": "significantly reduced"}, {"measurement": "cytotoxic activity of plasma incubated with hapten", "setting": "two different AB human plasma types, FIG. 10", "result": "reduced the cytotoxic activity in one plasma type, but not the other"}]}
